Measured values published in PubChem BioAssay AID2557 (NMMLSC, 2010).
The list shows a part of the results, in another mix than the full data. Some of these compounds have results that are not shown, active ones among them. Active and inactive are the calls of the source. Rule as the data show it: active = inhibition above about 50%; inactive = the rest.

Protein sequences, listed by entry. Tags and fused reporters are not part of them.
UniProt P13612, whole entry, looked up: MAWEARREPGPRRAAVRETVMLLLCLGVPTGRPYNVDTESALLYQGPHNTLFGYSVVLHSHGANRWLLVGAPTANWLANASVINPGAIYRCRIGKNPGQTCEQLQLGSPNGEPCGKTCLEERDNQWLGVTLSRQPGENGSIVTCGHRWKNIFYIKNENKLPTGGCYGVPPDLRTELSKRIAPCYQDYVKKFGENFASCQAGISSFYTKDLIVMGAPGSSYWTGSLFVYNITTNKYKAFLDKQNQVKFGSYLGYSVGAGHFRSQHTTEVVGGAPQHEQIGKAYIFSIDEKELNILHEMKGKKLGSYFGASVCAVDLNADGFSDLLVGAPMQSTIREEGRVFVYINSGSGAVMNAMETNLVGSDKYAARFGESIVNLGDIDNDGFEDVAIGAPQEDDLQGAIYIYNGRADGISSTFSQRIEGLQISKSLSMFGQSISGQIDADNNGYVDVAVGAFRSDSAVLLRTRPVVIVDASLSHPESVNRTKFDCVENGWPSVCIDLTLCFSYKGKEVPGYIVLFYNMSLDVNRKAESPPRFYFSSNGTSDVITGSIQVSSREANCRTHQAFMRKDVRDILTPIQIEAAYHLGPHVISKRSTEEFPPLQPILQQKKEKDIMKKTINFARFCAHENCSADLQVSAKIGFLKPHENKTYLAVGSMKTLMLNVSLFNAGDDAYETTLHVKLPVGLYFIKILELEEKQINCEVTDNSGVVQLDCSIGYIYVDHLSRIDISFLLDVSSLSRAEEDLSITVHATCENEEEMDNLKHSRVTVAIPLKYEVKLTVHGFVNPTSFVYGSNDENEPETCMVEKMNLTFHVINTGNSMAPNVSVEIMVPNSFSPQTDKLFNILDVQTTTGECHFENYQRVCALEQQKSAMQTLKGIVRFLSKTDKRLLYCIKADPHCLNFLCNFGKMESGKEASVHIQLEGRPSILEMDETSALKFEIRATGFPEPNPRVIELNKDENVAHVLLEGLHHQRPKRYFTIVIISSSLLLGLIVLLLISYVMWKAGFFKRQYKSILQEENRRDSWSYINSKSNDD

biological target: Integrin alpha-4 (Homo sapiens) (UniProt P13612); assay: VLA-4 integrin binding inhibitors – MLPCN library, flow cytometry, VLA-4 expressing cells, VLA-4 allosteric modulator project, primary screen (AID 2557); details: ligand binding flow cytometry, active compounds read high, about 7 µM as worked out from the volumes in the protocol

Row | Compound | inhibition
1 | Cc1ccc(C(=O)NCC2(N3CCCCC3)CCCCC2)cc1 | inactive: -8.27%
2 | CCN(CC)CC(C)C(C)OC(=O)C(O)(c1ccccc1)c1ccccc1 (centres undefined) | inactive: 1.52%
3 | COc1cc(SC)ccc1C(=O)NCC1(N(C)C)CCCCC1 | inactive: 5.23%
4 | CC(C)N1C(=O)CC2(CCN(CCOC(=O)C(O)(c3ccccc3)c3ccccc3)CC2)C1=O | inactive: -6.82%
5 | CN1[C@@H]2CC[C@H]1CC(OC(=O)C(O)(c1ccccc1)c1ccccc1)C2 (some centres undefined) | inactive: -2.5%
6 | O=C(NCC1(N2CCCCC2)CCCCC1)c1cc([N+](=O)[O-])ccc1Cl | inactive: -5.05%
7 | COc1ccc(C(=O)NCC2(N(C)C)CCCCC2)cc1 | inactive: -0.29%
8 | Cc1cc(C(=O)NCC2(N3CCCCC3)CCCCC2)ccc1[N+](=O)[O-] | inactive: 0.94%
9 | CCN1CCCC(OC(=O)C2(O)c3ccccc3C=Cc3ccccc32)C1 (centres undefined) | inactive: -10.2%
10 | O=C(NCC1(N2CCCCC2)CCCCC1)c1cccc(Br)c1 | inactive: -0.67%
11 | C=CCN1CCN(CCOC(=O)C(O)(c2ccccc2)c2ccccc2)CC1 | inactive: 6.41%
12 | O=C(NCC1(N2CCCCC2)CCCCC1)c1cc(F)c(F)cc1Cl | inactive: -6.92%
13 | Cc1ccccc1C(=O)NCC1(N2CCCCC2)CCCCC1 | inactive: -17.6%
14 | CN(C)C1CCCC1OC(=O)C(O)(c1ccccc1)c1ccccc1 (centres undefined) | inactive: 6.7%
15 | CN(C)c1ccc(C(=O)NCC2(N(C)C)CCCCC2)cc1 | inactive: -4.73%
16 | O=C(NCC1(N2CCCCC2)CCCCC1)c1cccc(Cl)c1 | inactive: 11.6%
17 | COc1cccc(C(=O)NCC2(N3CCCCC3)CCCCC2)c1 | inactive: 7.23%
18 | COc1ccc(Cl)cc1C(=O)NCC1(N(C)C)CCCCC1 | inactive: 12.2%
19 | COc1cc(C(=O)NCC2(N(C)C)CCCCC2)c([N+](=O)[O-])cc1OC | inactive: 2.18%
20 | CN(C)C1(CNC(=O)c2ccc(Br)cc2)CCCCC1 | inactive: 11%
21 | CC(C)Oc1ccc(C(=O)NCC2(N(C)C)CCCCC2)cc1 | inactive: 17.1%
22 | CN(C)c1cccc(C(=O)NCC2(N(C)C)CCCCC2)c1 | inactive: -8.87%
23 | COc1ccc(Br)c(C(=O)NCC2(N3CCCCC3)CCCCC2)c1 | inactive: -0.42%
24 | O=C(OC1CN2CCC1CC2)C(CO)(c1ccccc1)c1ccccc1 (centres undefined) | inactive: 12.9%
